Assay results as given in patent publication US4181714A (priority 1977, dated 1980).

Test system: Pyricularia oryzae
Assay type: in vivo
Conditions: blast of rice, 500 ppm in sprayed dilution

CC(C)OP(=O)(OC(C)C)SCc1ccccc1 [Kitazin-P, O,Odiisopropyl-S-benzylphosphorothiolate]
Control Value: 80%
